Source: patent US7129213B2, “Tripeptides and tripeptide derivatives for the treatment of neurodegenerative diseases” (Neurotell AG, priority 2002, dated 2006)

PAMPA classification, predicted absorption after peroral application: weakly absorbed
Structure (SMILES): NCC(=O)N[C@@H](Cc1ccccc1)C(=O)N1CCC[C@H]1C(=O)O [H-Gly-Phe-Pro-OH]
